# This is a selection; strong and weak results do not stand in their true shares. Potency and affinity values are given separately. Some salts or complexes appear as unconnected parts, following the source record. Activity calls are given as the source filed them.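 How the source made its calls: active means inhibition of at least 50% with at least 30 cells and total cytoplasm GFP at most 10,000,000; inconclusive means under 30 cells or total GFP of 10,000,000 plus; inactive means the rest.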
# Protein sequences, listed by entry. Tags and fused reporters are not part of them.
# UniProt Q9HC97, whole entry: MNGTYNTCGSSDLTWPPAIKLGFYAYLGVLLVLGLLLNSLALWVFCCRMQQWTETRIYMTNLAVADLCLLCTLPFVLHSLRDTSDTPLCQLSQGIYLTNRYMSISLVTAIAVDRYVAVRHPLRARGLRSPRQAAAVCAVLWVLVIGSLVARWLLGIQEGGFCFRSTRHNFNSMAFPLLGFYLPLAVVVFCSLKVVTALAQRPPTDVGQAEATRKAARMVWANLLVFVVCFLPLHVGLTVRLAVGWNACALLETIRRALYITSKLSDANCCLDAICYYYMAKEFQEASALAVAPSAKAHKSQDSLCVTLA
# Biological target: G-protein coupled receptor 35 (Homo sapiens) (UniProt Q9HC97)
# Assay: inhibition of zaprinast-stimulated GPR35 beta-arrestin translocation – imaging, U2OS, beta-arrestin-GFP, zaprinast agonist, primary screen (AID 2058)
# Details: zaprinast antagonism, at 10 µM, hits give high values
row,SMILES,inhibition
1,O=C(OC1CN2CCC1CC2)c1ccc([N+](=O)[O-])cc1 (stereo not given),inactive: 7.6%
2,O=C(OCCN1CCN(CCOCc2ccccc2)CC1)C(O)(c1ccccc1)c1ccccc1,inactive: 4%
3,COc1ccc2c(c1O)-c1c(O)c(OC)cc3c1[C@H](C2)[N+](C)(C)CC3.O=[N+]([O-])c1cc([N+](=O)[O-])c([O-])c([N+](=O)[O-])c1[O-],inactive: -6.7%
4,CP(=O)(Nc1ccccc1F)Oc1ccccc1 (stereo not given),inactive: -13.2%
5,CC(C)c1ccc(OP(C)(=O)Nc2ccc(SC(F)(F)F)cc2)cc1 (stereo not given),inactive: 3.3%
6,CCN(CC)CCCOC(=O)C(O)(c1ccccc1)C1CCCCC1 (stereo not given),inactive: -4.7%
7,CP(=O)(Nc1ccccc1)Oc1ccc(F)cc1 (stereo not given),inactive: -11.1%
8,CCCCCOc1ccc(NP(C)(=O)Oc2ccc(Cl)cc2Cl)cc1 (stereo not given),inactive: 6.3%
9,O=[N+]([O-])c1cc([N+](=O)[O-])c(OC2CCCCC2O)c([N+](=O)[O-])c1 (stereo not given),inactive: -16.1%
10,CCOC(=O)c1ccc(NP(C)(=O)Oc2ccc(F)cc2)cc1 (stereo not given),inactive: 8.6%
11,COc1ccc(OP(C)(=O)Nc2ccc(SC(F)(F)F)cc2)cc1 (stereo not given),inactive: -14.6%
12,O=[N+]([O-])c1ccc(OP2(=O)COCCO2)cc1 (stereo not given),inactive: 0.9%
13,Cc1cc(-c2cccc3ccccc23)c(C)cn1.O=[N+]([O-])c1cc([N+](=O)[O-])c(O)c([N+](=O)[O-])c1,inactive: -9.4%
14,O=[N+]([O-])c1cc([N+](=O)[O-])c(NCC2CCS(=O)(=O)C2)c([N+](=O)[O-])c1 (stereo not given),inactive: 9.6%
15,COc1ccc(OP(C)(=O)Nc2cccc(Br)c2)cc1 (stereo not given),inactive: 4.8%
16,CN(C)CCOC(=O)C(O)(c1ccccc1)C1CCCCC1 (stereo not given),inactive: 19.8%
17,COc1ccc(NP(C)(=O)Oc2ccccc2OC)cc1 (stereo not given),inactive: -9.9%
18,CP(=O)(Nc1ccc2c(c1)OCCO2)Oc1ccccc1 (stereo not given),inactive: -12.9%
19,Cc1ccccc1NP(C)(=O)Nc1ccccc1C,inactive: -2%
20,CP(=O)(Nc1ccc(SC(F)(F)F)cc1)Oc1ccc(F)cc1 (stereo not given),inactive: -15.6%
21,CCOP(C)(=S)SCC(=O)NC(C)(CC)C(=O)O (stereo not given),inactive: -10.2%
22,CC(C)(C)c1ccc(OP(C)(=O)O)cc1,inactive: -1.3%

row,SMILES,inhibition
1,COc1ccccc1OP(C)(=O)Nc1ccccc1Br (stereo not given),inactive: -10.3%
2,CP(=O)(Nc1ccc(Cl)cc1)Oc1ccc(F)cc1 (stereo not given),inactive: -4.3%
3,CN(C)C(=O)c1c([N+](=O)[O-])cc([N+](=O)[O-])cc1[N+](=O)[O-],inactive: -13.3%
4,CCN(CC)CC(O)COC(=O)C(O)(c1ccccc1)C1CCCCC1 (stereo not given),inactive: 19.6%
5,COc1ccc(OP(C)(=O)Nc2ccc(Br)cc2)cc1 (stereo not given),inactive: -12.3%
6,COc1ccccc1OP(C)(=O)Nc1c(C)n(C)n(-c2ccccc2)c1=O (stereo not given),inactive: -1%
7,O=C(OCCCN1CCCC1)C(O)(c1ccccc1)C1CCCCC1 (stereo not given),inactive: 4.4%
8,CP(=O)(Oc1ccccc1)N1CCOC1=O (stereo not given),inactive: 8.8%
9,CCc1ccc(OP(C)(=O)Nc2cccnc2)cc1 (stereo not given),inactive: -1.5%
10,CCOC(=O)c1ccc(NP(C)(=O)Oc2ccc(Cl)cc2)cc1 (stereo not given),inactive: -20.3%
11,CP(=O)(OC12CC3CC(CC(C3)C1)C2)OC12CC3CC(CC(C3)C1)C2,inactive: 2.4%
12,Cc1nc2ccc3ccccc3c2o1.O=[N+]([O-])c1cc([N+](=O)[O-])c(O)c([N+](=O)[O-])c1,inactive: 6.3%
13,CP(=O)(OCCOc1ccccc1)OCCOc1ccccc1,inactive: -4.2%
14,CP(=O)(Nc1ccc(Cl)cc1Cl)Oc1ccccc1 (stereo not given),inactive: 8.7%
15,Cc1cc(C)cc(OP(C)(=O)Nc2cccc(C(F)(F)F)c2)c1 (stereo not given),inactive: 10.2%
16,COc1ccccc1OP(C)(=O)Nc1ccc(C)c(C)c1 (stereo not given),inactive: 3.9%
17,COc1ccc(OP(C)(=O)Nc2ccccc2Br)cc1 (stereo not given),inactive: -1.5%
18,O=[N+]([O-])c1cc([N+](=O)[O-])c(Nc2ccccn2)c([N+](=O)[O-])c1,inactive: 14.5%
19,Cc1c(NP(C)(=O)Oc2ccc(C(C)C)cc2)c(=O)n(-c2ccccc2)n1C (stereo not given),inactive: -8.3%
20,CP(=O)(Nc1ccccn1)Oc1ccccc1 (stereo not given),inactive: 13.9%
21,COc1ccccc1OP(C)(=O)Nc1ccc(C)cc1C (stereo not given),inactive: 17%
22,CCc1ccc(OP(C)(=O)O)cc1,inactive: 1.4%

row,SMILES,inhibition
1,COc1ccccc1OP(C)(=O)Nc1ccc(Br)cc1 (stereo not given),inactive: 9.3%
2,COc1ccc(OP(C)(=O)Nc2ccccn2)cc1 (stereo not given),inactive: 0.9%
3,CN(C)CCOC(=O)C(O)(c1ccccc1)C1CCCC1 (stereo not given),inactive: -5.8%
4,CCN(CC)CCCOC(=O)C(O)(c1ccccc1)c1ccccc1,inactive: -6.2%
5,COc1ccccc1OP(C)(=O)Nc1ccc(C)cc1 (stereo not given),inactive: 9.1%
6,Cc1ccc(NP(C)(=O)Oc2ccccc2)c(C)c1 (stereo not given),inactive: -1.6%
7,CCOC(=O)c1ccc(NP(C)(=O)Oc2ccccc2)cc1 (stereo not given),inactive: 6.2%
8,Cc1cc(C)cc(OP(C)(N)=O)c1 (stereo not given),inactive: 7.9%
9,COc1ccccc1OP(C)(=O)Nc1cc(Cl)ccc1C (stereo not given),inactive: 13.3%
10,COc1ccc(OP(C)(=O)Nc2cccc(F)c2)cc1 (stereo not given),inactive: -23.6%
11,O=[N+]([O-])c1ccc2c(c1)C=Nc1ccccc1O2,inactive: 6.7%
12,CC(C)(C)c1ccc(OP(C)(=O)Nc2ccc(SC(F)(F)F)cc2)cc1 (stereo not given),inactive: 3.8%
13,Cc1cccc(C)c1OP(C)(N)=O (stereo not given),inactive: -11%
14,CP(=S)(Nn1cnnc1)Oc1ccccc1 (stereo not given),inactive: 3.1%
15,CP(=O)(Nc1ccccc1Br)Oc1ccccc1 (stereo not given),inactive: 17%
16,COc1ccccc1OP(C)(=O)Nc1ccccc1 (stereo not given),inactive: -10.3%
17,CCOC(=O)c1ccc(NP(C)(=O)Oc2ccc(OC)cc2)cc1 (stereo not given),inactive: -12.1%
18,CCOP(C)(=S)SCC(=O)NC(C)C(=O)O (stereo not given),inactive: -18.9%
19,CP(=O)(Nc1ccccn1)Oc1ccc(Cl)cc1 (stereo not given),inactive: 6%
20,Cc1cccc(C)c1OP(C)(=O)Nc1ccc(SC(F)(F)F)cc1 (stereo not given),inactive: 3.8%
21,CP(=O)(Nc1ccc(SC(F)(F)F)cc1)Oc1ccc(Cl)cc1 (stereo not given),inactive: 3.5%
22,CP(=O)(Oc1ccccc1)OC(c1ccccc1)C(F)(F)F (stereo not given),inactive: -6.7%

row,SMILES,inhibition
1,CCc1ccc(OP(C)(=O)N2CCN(c3ccc([N+](=O)[O-])cc3)CC2)cc1 (stereo not given),inactive: -10.8%
2,CP(=O)(NC(=O)Nc1ccccc1)Oc1ccccc1 (stereo not given),inactive: 6.9%
3,Cc1cc(C)cc(OP(C)(=O)Nc2ccc(SC(F)(F)F)cc2)c1 (stereo not given),inactive: -3.6%
4,Cc1nc2ccc3ccccc3c2s1.O=[N+]([O-])c1cc([N+](=O)[O-])c(O)c([N+](=O)[O-])c1,inactive: 5.8%
5,O=[N+]([O-])c1cc([N+](=O)[O-])c(-n2nnc3ccccc32)c([N+](=O)[O-])c1,inactive: -11.2%
6,COc1ccccc1OP(C)(=O)Nc1c(C)cccc1C (stereo not given),inactive: 1.5%
7,CN1CCCCC1COC(=O)C1(O)c2ccccc2CCc2ccccc21 (stereo not given),inactive: 5.7%
8,CP(=O)(Nc1ccc(SC(F)(F)F)cc1)Oc1ccccc1 (stereo not given),inactive: 10.1%
9,CCCOc1ccc(NP(C)(=O)Oc2ccc(Cl)cc2)cc1 (stereo not given),inactive: -2.3%
10,O=[N+]([O-])c1cc([N+](=O)[O-])c(Nc2nnnn2CCO)c([N+](=O)[O-])c1,inactive: -6.4%
11,CCOC(=O)C(CC)C1=NC(C)(C)Cc2ccccc21.O=[N+]([O-])c1cc([N+](=O)[O-])c(O)c([N+](=O)[O-])c1 (stereo not given),inactive: 14.9%
12,CC1=NCCc2c1[nH]c1ccccc21.O=[N+]([O-])c1cc([N+](=O)[O-])c(O)c([N+](=O)[O-])c1,inactive: -13.5%
13,O=C(O)c1cccc(Nc2c([N+](=O)[O-])cc([N+](=O)[O-])cc2[N+](=O)[O-])c1,inactive: -12.6%
14,Cc1ccc(C)c(NP(C)(=O)Oc2ccccc2)c1 (stereo not given),inactive: 2.5%
15,CP(=O)(Nc1cccc(Br)c1)Oc1ccccc1 (stereo not given),inactive: -7.6%
16,Cc1cc(C)cc(OP(C)(=O)Nc2ccccn2)c1 (stereo not given),inactive: 6.1%
17,COc1ccccc1OP(C)(=O)Nc1cccc(Br)c1 (stereo not given),inactive: 2.5%
18,CCOC(=O)c1ccc(NP(C)(=O)Oc2cc(C)cc(C)c2)cc1 (stereo not given),inactive: -7.4%
19,Cc1cc(C)cc(OP(C)(=O)Nc2ccc(C)cc2C)c1 (stereo not given),inactive: -2.4%

# Reference: PubChem BioAssay AID2058 (Sanford-Burnham Center for Chemical Genomics, 2009)
